Source: patent US10730889B2, “Amido spirocyclic amide and sulfonamide derivatives” (Forma TM, LLC, priority 2012, dated 2020)

Chains of the proteins cited; added tags and fusions are not shown. Lines headed by an entry give the natural chain unless they say otherwise; changes in a name come on top.
UniProt P43490: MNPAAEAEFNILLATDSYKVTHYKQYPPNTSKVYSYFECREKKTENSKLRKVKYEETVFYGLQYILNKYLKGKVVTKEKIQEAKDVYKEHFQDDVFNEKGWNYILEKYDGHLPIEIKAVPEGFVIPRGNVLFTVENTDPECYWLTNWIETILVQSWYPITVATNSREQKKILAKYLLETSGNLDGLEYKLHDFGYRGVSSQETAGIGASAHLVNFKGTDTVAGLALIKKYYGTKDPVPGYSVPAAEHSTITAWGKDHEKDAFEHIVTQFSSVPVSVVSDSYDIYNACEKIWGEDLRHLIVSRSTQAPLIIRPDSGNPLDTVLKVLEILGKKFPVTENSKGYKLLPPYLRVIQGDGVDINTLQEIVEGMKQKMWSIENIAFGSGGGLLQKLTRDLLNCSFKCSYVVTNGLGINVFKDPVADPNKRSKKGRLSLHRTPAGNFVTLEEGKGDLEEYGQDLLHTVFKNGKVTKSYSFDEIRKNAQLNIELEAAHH

target: NAMPT (Homo sapiens (Human), UniProt P43490); assay: Biochemical inhibition assay (NAMPT enzymatic reaction, NMN quantified by mass spectrometry)

| SMILES | IC50 [µM] |
| --- | --- |
| O=C(NCC1CC12CCN(C(=O)c1ccnc3[nH]ccc13)CC2)c1cc2ccncc2o1 (stereo not drawn) [Example 239, N-[[6-(1H-pyrrolo[2,3-b]pyridine-4-carbonyl)-6-azaspiro[2.5]octan-2-yl]methyl]furo[2,3-c]pyridine-2-carboxamide] | 0.0329 |
| O=C(NCC1CC12CCN(C(=O)c1cccc3[nH]ncc13)CC2)c1cc2ccncc2o1 (stereo not drawn) [Example 240, N-[[6-(1H-indazole-4-carbonyl)-6-azaspiro[2.5]octan-2-yl]methyl]furo[2,3-c]pyridine-2-carboxamide] | 0.0263 |
| O=C(NCC1CC12CCN(C(=O)c1ccc3[nH]cnc3c1)CC2)c1cc2ccncc2o1 (stereo not drawn) [Example 241, N-[[6-(1H-benzimidazole-5-carbonyl)-6-azaspiro[2.5]octan-2-yl]methyl]furo[2,3-c]pyridine-2-carboxamide] | 0.0273 |
| N#Cc1ccc(C(=O)N2CCC3(CC2)CC3CNC(=O)c2cc3ccncc3o2)cc1 (stereo not drawn) [Example 242, N-[[6-(4-cyanobenzoyl)-6-azaspiro[2.5]octan-2-yl]methyl]furo[2,3-c]pyridine-2-carboxamide] | 0.134 |
| N#Cc1cccc(C(=O)N2CCC3(CC2)CC3CNC(=O)c2cc3ccncc3o2)c1 (stereo not drawn) [Example 243, N-[[6-(3-cyanobenzoyl)-6-azaspiro[2.5]octan-2-yl]methyl]furo[2,3-c]pyridine-2-carboxamide] | 0.0736 |
| O=C(NCC1CC12CCN(C(=O)c1ccc(CN3CCOCC3)cc1)CC2)c1cc2ccncc2o1 (stereo not drawn) [Example 245, N-[[6-[4-(morpholinomcthyl)benzoyl]-6-azaspiro[2.5]octan-2-yl]methyl]furo[2,3-c]pyridine-2-carboxamide] | 0.0525 |
| Cc1nccn1Cc1ccc(C(=O)N2CCC3(CC2)CC3CNC(=O)c2cc3ccncc3o2)cc1 (stereo not drawn) [Example 246, N-[[6-[4-[(2-methylimidazol-1-yl)methyl]benzoyl]-6-azaspiro[2.5]octan-2-yl]methyl]furo[2,3-c]pyridine-2-carboxamide] | 0.0211 |
| O=C(NCC1CC12CCN(C(=O)c1ccc(OC(F)(F)F)cc1)CC2)c1cc2ccncc2o1 (stereo not drawn) [Example 247, N-[[6-[4-(trifluoromethoxy)benzoyl]-6-azaspiro[2.5]octan-2-yl]methyl]furo[2,3-c]pyridine-2-carboxamide] | 0.205 |
| O=C(NCC1CC12CCN(C(=O)c1ccc(CN3CCCC3)cc1)CC2)c1cc2ccncc2o1 (stereo not drawn) [Example 248, N-[[6-[4-(pyrrolidin-1-ylmethyl)benzoyl]-6-azaspiro[2.5]octan-2-yl]methyl]furo[2,3-c]pyridine-2-carboxamide] | 0.0221 |
| O=C(NCC1CC12CCN(C(=O)c1cccc(Cn3cncn3)c1)CC2)c1cc2ccncc2o1 (stereo not drawn) [Example 249, N-[[6-[3-(1,2,4-triazol-1-ylmethyl)benzoyl]-6-azaspiro[2.5]octan-2-yl]methyl]furo[2,3-c]pyridine-2-carboxamide] | 0.254 |
| O=C(NCC1CC12CCN(C(=O)c1ccccc1Cn1cncn1)CC2)c1cc2ccncc2o1 (stereo not drawn) [Example 250, N-[[6-[2-(1,2,4-triazol-1-ylmethyl)benzoyl]-6-azaspiro[2.5]octan-2-yl]methyl]furo[2,3-c]pyridine-2-carboxamide] | 0.549 |
| O=C(NCC1CC12CCN(C(=O)c1ccc(Cn3cncn3)cc1)CC2)c1cc2ccncc2o1 (stereo not drawn) [Example 251, N-[[6-[4-(1,2,4-triazol-1-ylmethyl)benzoyl]-6-azaspiro[2.5]octan-2-yl]methyl]furo[2,3-c]pyridine-2-carboxamide] | 0.0776 |
| O=C(NCC1CC12CCN(C(=O)c1cccc(Cn3ccnc3)c1)CC2)c1cc2ccncc2o1 (stereo not drawn) [Example 252, N-[[6-[3-(imidazol-1-ylmethyl)benzoyl]-6-azaspiro[2.5]octan-2-yl]methyl]furo[2,3-c]pyridine-2-carboxamide] | 0.0695 |
| O=C(NCC1CC12CCN(C(=O)c1ccc(-n3ccnc3)cc1)CC2)c1cc2ccncc2o1 (stereo not drawn) [Example 253, N-[[6-(4-imidazol-1-ylbenzoy)-6-azaspiro[2.5]octan-2-yl]methyl]furo[2,3-c]pyridine-2-carboxamide] | 0.0417 |
| O=C(NCC1CC12CCN(C(=O)c1ccc(-c3ncn[nH]3)cc1)CC2)c1cc2ccncc2o1 (stereo not drawn) [Example 254, N-[[6-(4-(1H-1,2,4-triazol-5-yl)benzoyl]-6-azaspiro[2.5]octan-2-yl]methyl]furo[2,3-c]pyridine-2-carboxamide] | 0.0191 |
| O=C(NCC1CC12CCN(C(=O)c1ccc(-n3ccnc3)nc1)CC2)c1cc2ccncc2o1 (stereo not drawn) [Example 255, N-[[6-(6-imidazol-1-ylpyridine-3-carbonyl)-6-azaspiro[2.5]octan-2-yl]methyl]furo[2,3-c]pyndine-2-carboxamide] | 0.0499 |
| O=C(NCC1CC12CCN(C(=O)c1cc(C(F)(F)F)ccn1)CC2)c1cc2ccncc2o1 (stereo not drawn) [Example 256, N-[[6-[4-(trifluoromethyl]pyridine-2-carbonyl]6-azaspiro[2.5]octan-2-yl]methyl]furo[2,3-c]pyridine-2-carboxamide] | 0.147 |
| O=C(NCC1CC12CCN(C(=O)c1ccc(C(F)(F)F)nc1)CC2)c1cc2ccncc2o1 (stereo not drawn) [Example 257, N-[[6-[6-(trifluoromethyl]pyndine-3-carbonyl]-6-azaspiro[2.5]octan-2-yl]methyl]furo[2,3-c]pyridine-2-carboxamide] | 0.313 |

| SMILES | IC50 [µM] |
| --- | --- |
| O=C1COc2ccc(C(=O)N3CCC4(CC3)CC4CNC(=O)c3cc4ccncc4o3)cc2N1 (stereo not drawn) [Example 258, N-[[6-(3-oxo-4H-1,4-benzoxazine-6-carbonyl)-6-azaspiro[2.5]octan-2-yl]methyl]furo[2,3-c]pyridine-2-carboxamide] | 0.0314 |
| NS(=O)(=O)c1ccc(C(=O)N2CCC3(CC2)CC3CNC(=O)c2cc3ccncc3o2)cc1 (stereo not drawn) [Example 259, N-[[6-(4-sulfamoylbenzoyl)-6-azaspiro[2.5]octan-2-yl]methyl]furo[2,3-c]pyridine-2-carboxamide] | 0.161 |
| O=C(NCC1CC12CCN(C(=O)c1ccccc1Cn1ccnc1)CC2)c1cc2ccncc2o1 (stereo not drawn) [Example 260, N-[[6-(2-(imidazol-1-ylmethyl)benzoyl]-6-azaspito[2.5]octan-2-yl]methyl]furo[2,3-c]pyridine-2-carboxamide] | 0.916 |
| O=C(NCC1CC12CCN(C(=O)c1ccc3nccnc3c1)CC2)c1cc2ccncc2o1 (stereo not drawn) [Example 261, N-[[6-(quinoxaline-6-carbonyl)-6-azaspiro[2.5]octan-2-yl]methyl]furo[2,3-c]pyridine-2-carboxamide] | 0.0245 |
| O=C(NCC1CC12CCN(C(=O)c1ccc3cnccc3n1)CC2)c1cc2ccncc2o1 (stereo not drawn) [Example 262, N-[[6-(1,6-naphthyridine-2-carbonyl)-6-azaspiro[2.5]octan-2-yl]methyl]furo[2,3-c]pyridine-2-carboxamide] | 0.0695 |
| CC(=O)Nc1cccc(C(=O)N2CCC3(CC2)CC3CNC(=O)c2cc3ccncc3o2)c1 (stereo not drawn) [Example 264, N-[[6-(3-acetamidobenzoyl)-6-azaspiro[2.5]octan-2-yl]methyl]furo[2,3-c]pyridine-2-carboxamide] | 0.0683 |
| CC(=O)Nc1cnccc1C(=O)N1CCC2(CC1)CC2CNC(=O)c1cc2ccncc2o1 (stereo not drawn) [Example 265, N-[[6-(3-acetamidopyridine-4-carbonyl)-6-azaspiro[2.5]octan-2-yl]methyl]furo[2,3-c]pyridine-2-carboxamide] | 2.23 |
| O=C(NCC1CC12CCN(C(=O)c1ccc3nonc3c1)CC2)c1cc2ccncc2o1 (stereo not drawn) [Example 266, N-[[6-(2,1,3-benzoxadiazole-5-carbonyl)-6-azaspiro[2.5]octan-2-yl]methyl]furo[2,3-c]pyridine-2-carboxamide] | 0.127 |
| O=C(NCC1CC12CCN(C(=O)c1ccnc3ncccc13)CC2)c1cc2ccncc2o1 (stereo not drawn) [Example 267, N-[[6-(1,8-naphthyridine-4-carbonyl)-6-azaspiro[2.5]octan-2-yl]methyl]furo[2,3-c]pyridine-2-carboxamide] | 0.321 |
| O=C(NCC1CC12CCN(C(=O)c1cnc3ccccc3n1)CC2)c1cc2ccncc2o1 (stereo not drawn) [Example 269] | 0.0277 |
| O=C(NCC1CC12CCN(C(=O)c1ccc3cccnc3n1)CC2)c1cc2ccncc2o1 (stereo not drawn) [Example 271, N-[[6-(1,8-naphthyridine-2-carbonyl)-6-azaspiro[2.5]octan-2-yl]methyl]furo[2,3-c]pyridine-2-carboxamide] | 0.0964 |
| O=C(NCC1CC12CCN(C(=O)c1ccno1)CC2)c1cc2ccncc2o1 (stereo not drawn) [Example 272, N-[[6-(isoxazole-5-carbonyl)-6-azaspiro[2.5]octan-2-yl]methyl]furo[2,3-c]pyridine-2-carboxamide] | 0.335 |
| CC(C)CC(=O)N1CCC2(CC1)CC2CNC(=O)c1cc2ccncc2o1 (stereo not drawn) [Example 273, N-[[6-(3-methylbutanoyl)-6-azaspiro[2.5]octan-2-yl]methyl]furo[2,3-c]pyridine-2-carboxamide] | 0.0178 |
| CC(C)(C)OC(=O)N1CCC2(CC1)CC2CNC(=O)N1Cc2cn[nH]c2C1 (stereo not drawn) [Example 274, tert-Butyl 2-[(4,6-dihydro-1H-pyrrolo[3,4-c]pyrazole-5-carbonylamino)methyl]-6-azaspiro[2.5]octane-6-carboxylate] | 0.384 |
| CN1CCC(C)(CC(=O)N2CCC3(CC2)CC3CNC(=O)c2cc3ccncc3o2)CC1 (stereo not drawn) [Example 275, N-([6-[2-(1,4-dimethylpiperidin-4-yl)acetyl]-6-azaspiro[2.5]octan-1-yl]methyl)furo[2,3-c]pyridine-2-carboxamide] | 0.121 |
| O=C(NCC1CC12CCN(C(=O)Cc1cccnc1)CC2)c1cc2cnccc2[nH]1 (stereo not drawn) [Example 277, N-[[6-[2-(3-pyridyl)acctyl]-6-azaspiro[2.5]octan-2-yl]methyl]-1H-pyrrolo[3,2-c]pyridine-2-carboxamide] | 0.445 |
| O=C(NCC1CC12CCN(C(=O)Cc1ccncc1)CC2)c1cc2cnccc2[nH]1 (stereo not drawn) [Example 278, N-[[6-[2-(4-pyridyl)acetyl]-6-azaspiro[2.5]octan-2-yl]methyl]-1H-pyrrolo[3,2-c]pyridine-2-carboxamide] | 0.479 |
| Cc1cc(C)c(C(=O)N2CCC3(CC2)CC3CNC(=O)c2cc3ccncc3o2)cn1 (stereo not drawn) [Example 281, N-[[6-(4,6-dimethylpyridine-3-carbonyl)-6-azaspiro[2.5]octan-2-yl)methyl]furo[2,3-c]pyridine-2-carboxamide] | 0.056 |
